Measured values from patent US7410949B2, “Neuropeptide-2 receptor (Y-2R) agonists and uses thereof” (Hoffmann-La Roche Inc., priority 2005, dated 2008).

By UniProt entry, the sequences of proteins in these tests, tags left out. Where a name states a change or a piece, a line headed by the entry shows the natural chain unless it says otherwise.
UniProt P25929, whole entry: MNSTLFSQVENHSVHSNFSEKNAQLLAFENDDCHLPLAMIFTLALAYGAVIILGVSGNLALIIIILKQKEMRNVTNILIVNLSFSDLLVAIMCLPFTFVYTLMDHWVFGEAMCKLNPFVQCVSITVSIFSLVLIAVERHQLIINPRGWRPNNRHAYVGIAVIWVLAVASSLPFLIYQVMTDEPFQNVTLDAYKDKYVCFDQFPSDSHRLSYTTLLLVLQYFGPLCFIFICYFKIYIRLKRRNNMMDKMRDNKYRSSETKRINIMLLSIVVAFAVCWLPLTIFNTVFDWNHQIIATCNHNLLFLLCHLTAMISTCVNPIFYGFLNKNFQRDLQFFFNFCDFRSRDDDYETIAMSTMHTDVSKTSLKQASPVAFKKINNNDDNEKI
UniProt P50391: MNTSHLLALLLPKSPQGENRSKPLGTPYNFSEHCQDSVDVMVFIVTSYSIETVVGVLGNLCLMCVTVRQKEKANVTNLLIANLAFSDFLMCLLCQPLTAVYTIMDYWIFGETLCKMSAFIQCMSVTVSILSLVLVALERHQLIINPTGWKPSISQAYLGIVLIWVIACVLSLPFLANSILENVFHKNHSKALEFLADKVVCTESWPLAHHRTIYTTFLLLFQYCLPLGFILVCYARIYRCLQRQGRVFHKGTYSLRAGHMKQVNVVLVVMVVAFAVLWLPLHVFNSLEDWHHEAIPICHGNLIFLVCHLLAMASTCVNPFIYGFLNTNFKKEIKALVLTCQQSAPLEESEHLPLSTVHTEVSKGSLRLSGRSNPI
UniProt P49146, whole entry: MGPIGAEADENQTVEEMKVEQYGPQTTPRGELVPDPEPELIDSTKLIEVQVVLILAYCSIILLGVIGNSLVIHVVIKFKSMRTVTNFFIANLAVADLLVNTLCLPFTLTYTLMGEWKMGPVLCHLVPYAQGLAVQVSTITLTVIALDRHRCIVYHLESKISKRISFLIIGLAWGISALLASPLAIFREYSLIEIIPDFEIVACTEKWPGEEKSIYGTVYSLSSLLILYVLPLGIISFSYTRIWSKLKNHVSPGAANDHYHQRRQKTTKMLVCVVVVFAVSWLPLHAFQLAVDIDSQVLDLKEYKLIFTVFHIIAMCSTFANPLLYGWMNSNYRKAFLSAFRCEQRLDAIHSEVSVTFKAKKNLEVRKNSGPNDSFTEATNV

Columns and labels:
Type in all cases: cell-based
[1] = target: Y1R (Homo sapiens, UniProt P25929); test: FLIPR assay, Y1R; settings: read-out: Y1R EC50(nM) FLIPR
Description: (§1) Loading Buffer (Calcium-3 Assay Kit, Molecular Devices) was prepared by dissolving the contents of one vial (Express Kit) into 1000 ml Hank's Balanced Salt Solution containing 20 mM HEPES and 5 mM probenecid.
(§2) During the incubation, test compounds were prepared at 3.5× the desired concentration in HBSS (20 mM HEPES)/0.05% BSA/1% DMSO and transferred to a 384 well plate for use on FLIPR.
(§3) After incubation, both the cell and compound plates were brought to the FLIPR and 20 μL of the diluted compounds were transferred to the cell plates by the FLIPR. During the assay, fluorescence readings were taken simultaneously from all 384 wells of the cell plate every 1.5 seconds. Five readings were taken to establish a stable baseline, and then 20 μL of sample was rapidly (30 μL/sec) and simultaneously added to each well of the cell plate. The fluorescence was continuously monitored before, during and after sample addition for a total elapsed time of 100 seconds. Responses (increase in peak fluorescence) in each well following addition was determined. The initial fluorescence reading from each well, prior to ligand stimulation, was used as a zero baseline value for the data from that well. The responses are expressed as % of maximal response of the positive control.

[2] = target: Y4R (Homo sapiens, UniProt P50391); test: FLIPR assay, Y4R; settings: read-out: Y4R EC50(nM) FLIPR
Description: as §1, §2, §3

[3] = target: T1, hNPY2R (Homo sapiens, UniProt P49146); test: CaFlux Assay (FLIPR), Y2R; parameters: expressed in transfected cells; host or cells: HEK-293 cells stably expressing the G protein chimera Gaqi9; settings: read-out: Y2R EC50(nM) FLIPR; Hek-293 cells with Gaqi9 and human NPY2 receptor
Description: Hek-293 cells were stably transfected with the G protein chimera Gaqi9 and the hygromycin-B resistance gene were further transfected with the human NPY2 receptor and G418 antibiotic selection. Following selection in both hygromycin-B and G418, individual clones were assayed for their response to PYY. The transfected cells were cultured in DMEM medium supplemented with 10% fetal bovine serum, 50 μg/ml hygromycin-B 2 mM glutamine, 100 U/ml penicillin, 100 μg/ml streptomycin and 250 μg/ml G418. Cells are harvested with trypsin-EDTA and counted using ViaCount reagent. The cell suspension volume is adjusted to 4.8×10^5 cells/ml with complete growth media. Aliquots of 25 μL are dispensed into 384 well Poly-D Lysine coated black/clear microplates (Falcon) and the microplates were placed in a 37° C. CO2 incubator overnight.
as §1, §2, §3

[4] = target: T1, hNPY2R; test: cAMP Agonist Assay in HEK293/hNPY2R cells; parameters: expressed in transfected cells; host or cells: HEK293/hNPY2R (grown under G418 selection); settings: read-out: Y2R IC50(nM) cAMP, Forskolin 5 μM
Description: The flask was gently tapped and the cell suspension was pooled. […] The suspension was pooled and counted.
The plates were incubated at 37° C. overnight.
The media and reagents were allowed to come to room temperature.
The cell medium was tapped off with a gentle inversion of the cell plate on a paper towel. 50 μL of stimulation medium was placed per well (each concentration done in four replicates). The plates were incubated at room temperature for 30 min, and the cells were checked under a microscope for toxicity.
20 μL of the lysate was transferred from stimulation plates into the pre-coated antibody plates (384-well) from the Tropix kit. […] The plates were incubated at room temperature while shaking for 1 hour. […] The plates were tapped to dry. […] Signal for 1 sec/well in a Luminometer. (VICTOR-V) was measured.

| Substance | EC50 [1] | EC50 [2] | EC50 [3] | IC50 [4] |
| --- | --- | --- | --- | --- |
| Ac-2,2-Aic-Nle-Pqa-Arg-His-Tyr-Leu-Asn-Leu-Val-Thr-Arg-Gln-Arg-Tyr-NH2 [Example 69] | > 5000 nM | > 5000 nM | – | – |
| Ac-Ach-Nle-Pqa-Arg-His-Tyr-Leu-Asn-Leu-Val-Thr-Arg-Gln-Arg-Tyr-NH2 [Example 70] | > 5000 nM | > 5000 nM | – | – |
| Ac-Acp-Nle-Pqa-Arg-His-Tyr-Leu-Asn-Leu-Val-Thr-Arg-Gln-Arg-Tyr-NH2 [Example 71] | > 5000 nM | > 5000 nM | – | – |
| Ac-Aib-Nle-Pqa-Arg-His-Tyr-Leu-Asn-Leu-Val-Thr-Arg-Gln-Arg-Tyr-NH2 [Example 66] | – | > 5000 nM | – | – |
| Ac-Ile-Ala-Pqa-Arg-His-Tyr-Leu-Asn-Leu-Val-Thr-Arg-Gln-Arg-Tyr-NH2 [Example 17] | > 5000 nM | 3020 nM | – | – |
| Ac-Ile-Lys-Pqa-Arg-His-Tyr-Leu-Asn-Leu-Val-Thr-Arg-Gln-Arg-Tyr-NH2 [Example 6] | – | > 5000 nM | 0.58 nM | 0.026 nM |
| Ac-Ile-Nle-Pqa-(2,3,4,5,6 Penta fluoro Phe)-His Tyr-Leu-Asn-Leu-Val-Thr-Arg-Gln-Arg-Tyr-NH2 [Example 65] | > 5000 nM | > 5000 nM | – | – |
| Ac-Ile-Nle-Pqa-(3,4,5 Trifluoro Phe)-His-Tyr-Leu-Asn-Leu-Val-Thr-Arg-Gln-Arg-Tyr-NH2 [Example 64] | > 5000 nM | > 5000 nM | 46 nM | – |
| Ac-Ile-Nle-Pqa-Arg-(3-Pal)-Tyr-Leu-Asn-Leu-Val-Thr-Arg-Gln-Arg-Tyr-NH2 [Example 62] | – | > 5000 nM | 5.6 nM | – |
| Ac-Ile-Nle-Pqa-Arg-(4-MeOApc)-Tyr-Leu-Asn-Leu-Val-Thr-Arg-Gln-Arg-Tyr-NH2 [Example 61] | > 5000 nM | > 5000 nM | – | 7.8 nM |
| Ac-Ile-Nle-Pqa-Arg-(4-Pal)-Tyr-Leu-Asn-Leu-Val-Thr-Arg-Gln-Arg-Tyr-NH2 [Example 63] | > 5000 nM | > 5000 nM | – | 0.099 nM |
| Ac-Ile-Nle-Pqa-Arg-His-(1)Nal-Leu-Asn-Leu-Val-Thr-Arg-Gln-Arg-Tyr-NH2 [Example 57] | – | > 5000 nM | 13 nM | – |
| Ac-Ile-Nle-Pqa-Arg-His-(2)Nal-Leu-Asn-Leu-Val-Thr-Arg-Gln-Arg-Tyr-NH2 [Example 58] | 870 nM | > 5000 nM | – | – |
| Ac-Ile-Nle-Pqa-Arg-His-(2,3,4,5,6 Penta fluoroPhe)-Leu-Asn-Leu-Val-Thr-Arg-Gln-Arg-Tyr-NH2 [Example 60] | – | > 5000 nM | – | – |
| Ac-Ile-Nle-Pqa-Arg-His-(3,4,5trifluorPhe)-Leu-Asn-Leu-Val-Thr-Arg-Gln-Arg-Tyr-NH2 [Example 59] | – | > 5000 nM | – | – |
| Ac-Ile-Nle-Pqa-Arg-His-Bip-Leu-Asn-Leu-Val-Thr-Arg-Gln-Arg-Tyr-NH2 [Example 55] | – | > 5000 nM | – | – |
| Ac-Ile-Nle-Pqa-Arg-His-Dip-Leu-Asn-Leu-Val-Thr-Arg-Gln-Arg-Tyr-NH2 [Example 56] | – | > 5000 nM | – | – |
| Ac-Ile-Nle-Pqa-Arg-His-Tic-Leu-Asn-Leu-Val-Thr-Arg-Gln-Arg-Tyr-NH2 [Example 54] | > 5000 nM | > 5000 nM | – | 45 nM |
| Ac-Ile-Nle-Pqa-Arg-His-Tyr-Leu-Asn-Leu-Val-Thr-Arg-Gln-Arg-(D)Tyr-NH2 [Example 48] | – | > 5000 nM | 107 nM | 2.2 nM |
| Ac-Ile-Nle-Pqa-Phe-His-Tyr-Leu-Asn-Leu-Val-Thr-Arg-Gln-Arg-Tyr-NH2 [Example 45] | > 5000 nM | > 5000 nM | – | – |
| Cyclo Lys28-Asp32 Ac-Ile-Nle-Pqa-Arg-His-Tyr-Lys-Asn-Leu-Val-Asp-Arg-Gln-Arg-Tyr-NH2 [Example 50] | > 5000 nM | > 5000 nM | – | – |
| H-Ala-Lys-Pqa-Arg-His-Tyr-Leu-Asn-Leu-Val-Thr-Arg-Gln-Arg-Tyr-NH2 [Example 18] | > 5000 nM | > 5000 nM | 0.62 nM | – |

| Substance | EC50 [1] | EC50 [2] | EC50 [3] | IC50 [4] |
| --- | --- | --- | --- | --- |
| H-Ile-Ala-Pqa-Arg-His-Tyr-Leu-Asn-Leu-Val-Thr-Arg-Gln-Arg-Tyr-NH2 [Example 16] | 1000 nM | > 5000 nM | – | 0.079 nM |
| H-Ile-Lys-Pqa-Ala-His-Trp-Leu-Asn-Leu-Val-Thr-Arg-Gln-Arg-Tyr-NH2 [Example 47] | – | > 5000 nM | – | – |
| H-Ile-Lys-Pqa-Ala-His-Tyr-Leu-Asn-Leu-Val-Thr-Arg-Gln-Arg-Tyr-NH2 [Example 15] | 3400 nM | > 5000 nM | 25 nM | – |
| H-Ile-Lys-Pqa-Arg-(D)His-Tyr-Leu-Asn-Leu-Val-Thr-Arg-Gln-Arg-Tyr-NH2 [Example 27] | – | > 5000 nM | – | 3.18 nM |
| H-Ile-Lys-Pqa-Arg-(NMe)His-Tyr-Leu-Asn-Leu-Val-Thr-Arg-Gln-Arg-Tyr-NH2 [Example 39] | 3800 nM | > 5000 nM | – | – |
| H-Ile-Lys-Pqa-Arg-Ala-Tyr-Leu-Asn-Leu-Val-Thr-Arg-Gln-Arg-Tyr-NH2 [Example 14] | > 5000 nM | > 5000 nM | – | 0.062 nM |
| H-Ile-Lys-Pqa-Arg-His-(D)Tyr-Leu-Asn-Leu-Val-Thr-Arg-Gln-Arg-Tyr-NH2 [Example 26] | – | > 5000 nM | 2.98 nM | 0.26 nM |
| H-Ile-Lys-Pqa-Arg-His-Ala-Leu-Asn-Leu-Val-Thr-Arg-Gln-Arg-Tyr-NH2 [Example 13] | > 5000 nM | > 5000 nM | – | – |
| H-Ile-Lys-Pqa-Arg-His-Trp-Leu-Asn-Leu-Val-Thr-Arg-Gln-Arg-Tyr-NH2 [Example 46] | – | > 5000 nM | – | – |
| H-Ile-Lys-Pqa-Arg-His-Tyr-(NMe)Leu-Asn-Leu-Val-Thr-Arg-Gln-Arg-Tyr-NH2 [Example 37] | > 5000 nM | > 5000 nM | – | – |
| H-Ile-Lys-Pqa-Arg-His-Tyr-Ala-Asn-Leu-Val-Thr-Arg-Gln-Arg-Tyr-NH2 [Example 12] | > 5000 nM | > 5000 nM | – | – |
| H-Ile-Lys-Pqa-Arg-His-Tyr-Leu-Ala-Leu-Val-Thr-Arg-Gln-Arg-Tyr-NH2 [Example 11] | > 5000 nM | > 5000 nM | – | – |
| H-Ile-Lys-Pqa-Arg-His-Tyr-Leu-Asn-Ala-Val-Thr-Arg-Gln-Arg-Tyr-NH2 [Example 10] | > 5000 nM | > 5000 nM | – | 0.25 nM |
| H-Ile-Lys-Pqa-Arg-His-Tyr-Leu-Asn-Leu-Ala-Thr-Arg-Gln-Arg-Tyr-NH2 [Example 9] | > 5000 nM | > 5000 nM | – | 0.21 nM |
| H-Ile-Lys-Pqa-Arg-His-Tyr-Leu-Asn-Leu-Val-(NMe)Thr-Arg-Gln-Arg-Tyr-NH2 [Example 34] | > 5000 nM | > 5000 nM | – | 89 nM |
| H-Ile-Lys-Pqa-Arg-His-Tyr-Leu-Asn-Leu-Val-Ala-Arg-Gln-Arg-Tyr-NH2 [Example 8] | > 5000 nM | > 5000 nM | – | – |
| H-Ile-Lys-Pqa-Arg-His-Tyr-Leu-Asn-Leu-Val-Thr-(NMe)Arg-Gln-Arg-Tyr-NH2 [Example 33] | > 5000 nM | > 5000 nM | – | – |
| H-Ile-Lys-Pqa-Arg-His-Tyr-Leu-Asn-Leu-Val-Thr-Arg-Ala-Arg-Tyr-NH2 [Example 7] | > 5000 nM | > 5000 nM | – | 29 nM |
| H-Ile-NMeLys-Pqa-Arg-His-Tyr-Leu-Asn-Leu-Val-Thr-Arg-Gln-Arg-Tyr-NH2 [Example 41] | – | > 5000 nM | – | 0.19 nM |
| H-Ile-Nle-Pqa-Arg-His-Tyr-Leu-Asn-Leu-Val-Thr-Arg-Gln-Arg-Tyr-NH2 [Example 43] | 430 nM | > 5000 nM | – | 0.096 nM |
| H-NMeIle-Lys-Pqa-Arg-His-Tyr-Leu-Asn-Leu-Val-Thr-Arg-Gln-Arg-Tyr-NH2 [Example 42] | – | > 5000 nM | – | 0.12 nM |
